# Target: Receptor tyrosine-protein kinase erbB-3 (Homo sapiens, UniProt P21860)
# Protein sequences, listed by entry. Tags and fused reporters are not part of them.
# UniProt P21860, whole entry: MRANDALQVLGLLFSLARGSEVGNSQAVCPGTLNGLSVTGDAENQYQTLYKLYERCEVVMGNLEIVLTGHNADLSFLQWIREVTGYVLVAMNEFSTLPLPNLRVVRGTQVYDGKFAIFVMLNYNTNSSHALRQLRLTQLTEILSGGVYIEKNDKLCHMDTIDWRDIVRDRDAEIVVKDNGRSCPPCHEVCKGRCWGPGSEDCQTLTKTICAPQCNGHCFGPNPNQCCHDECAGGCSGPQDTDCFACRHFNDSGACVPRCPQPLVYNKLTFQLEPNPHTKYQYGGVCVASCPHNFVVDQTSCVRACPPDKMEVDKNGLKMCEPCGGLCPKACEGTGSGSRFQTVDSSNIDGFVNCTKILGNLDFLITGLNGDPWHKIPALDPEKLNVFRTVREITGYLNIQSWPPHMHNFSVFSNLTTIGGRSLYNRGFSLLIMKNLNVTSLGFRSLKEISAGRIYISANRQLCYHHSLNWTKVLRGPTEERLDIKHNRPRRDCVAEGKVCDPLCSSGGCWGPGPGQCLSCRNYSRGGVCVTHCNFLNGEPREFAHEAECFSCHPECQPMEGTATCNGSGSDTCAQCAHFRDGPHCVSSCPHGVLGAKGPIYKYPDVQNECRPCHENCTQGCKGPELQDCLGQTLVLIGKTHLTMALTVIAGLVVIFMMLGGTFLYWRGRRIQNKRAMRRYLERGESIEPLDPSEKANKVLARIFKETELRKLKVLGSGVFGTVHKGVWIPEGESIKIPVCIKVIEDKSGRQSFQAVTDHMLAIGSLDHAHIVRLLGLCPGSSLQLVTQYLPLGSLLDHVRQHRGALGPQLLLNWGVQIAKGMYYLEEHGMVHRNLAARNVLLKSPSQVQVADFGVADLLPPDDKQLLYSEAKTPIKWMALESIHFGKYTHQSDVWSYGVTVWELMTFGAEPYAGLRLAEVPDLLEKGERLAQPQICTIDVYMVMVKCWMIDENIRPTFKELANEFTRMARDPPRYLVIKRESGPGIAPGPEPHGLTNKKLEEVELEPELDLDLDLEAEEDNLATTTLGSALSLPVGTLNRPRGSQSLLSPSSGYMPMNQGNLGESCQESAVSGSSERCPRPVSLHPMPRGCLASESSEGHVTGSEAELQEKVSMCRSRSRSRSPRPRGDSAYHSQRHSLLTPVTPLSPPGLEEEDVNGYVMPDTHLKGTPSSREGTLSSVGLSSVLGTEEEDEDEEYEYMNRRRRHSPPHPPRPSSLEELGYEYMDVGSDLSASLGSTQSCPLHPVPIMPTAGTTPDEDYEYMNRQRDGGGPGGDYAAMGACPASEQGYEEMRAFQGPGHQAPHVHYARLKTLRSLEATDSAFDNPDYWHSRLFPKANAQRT
compound,measurement,value
CNC(=O)CN1CCC(Oc2cc3c(Nc4cccc(Cl)c4F)ncnc3cc2OC)CC1 [SAPITINIB],IC50,4 nM
